Sequences of proteins named here, by UniProt entry; tags and fusion partners are left off. A change or cut given only in a name is not applied to a line headed by its entry.
UniProt P15823, whole entry, looked up: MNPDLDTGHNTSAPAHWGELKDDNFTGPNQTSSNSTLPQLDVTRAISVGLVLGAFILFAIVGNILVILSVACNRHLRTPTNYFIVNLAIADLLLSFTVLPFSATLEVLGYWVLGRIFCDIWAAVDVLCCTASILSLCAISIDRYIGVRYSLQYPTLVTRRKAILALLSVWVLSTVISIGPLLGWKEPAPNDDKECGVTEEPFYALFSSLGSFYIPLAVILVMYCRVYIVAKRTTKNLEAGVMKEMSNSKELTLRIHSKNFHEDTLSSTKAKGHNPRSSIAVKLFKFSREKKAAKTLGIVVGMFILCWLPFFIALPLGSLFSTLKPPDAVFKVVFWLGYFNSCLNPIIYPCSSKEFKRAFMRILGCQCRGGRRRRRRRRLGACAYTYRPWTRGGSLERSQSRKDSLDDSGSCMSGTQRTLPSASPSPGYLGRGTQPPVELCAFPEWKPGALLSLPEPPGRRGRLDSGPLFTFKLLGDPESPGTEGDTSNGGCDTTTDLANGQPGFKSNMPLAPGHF
UniProt P23944, whole entry, looked up: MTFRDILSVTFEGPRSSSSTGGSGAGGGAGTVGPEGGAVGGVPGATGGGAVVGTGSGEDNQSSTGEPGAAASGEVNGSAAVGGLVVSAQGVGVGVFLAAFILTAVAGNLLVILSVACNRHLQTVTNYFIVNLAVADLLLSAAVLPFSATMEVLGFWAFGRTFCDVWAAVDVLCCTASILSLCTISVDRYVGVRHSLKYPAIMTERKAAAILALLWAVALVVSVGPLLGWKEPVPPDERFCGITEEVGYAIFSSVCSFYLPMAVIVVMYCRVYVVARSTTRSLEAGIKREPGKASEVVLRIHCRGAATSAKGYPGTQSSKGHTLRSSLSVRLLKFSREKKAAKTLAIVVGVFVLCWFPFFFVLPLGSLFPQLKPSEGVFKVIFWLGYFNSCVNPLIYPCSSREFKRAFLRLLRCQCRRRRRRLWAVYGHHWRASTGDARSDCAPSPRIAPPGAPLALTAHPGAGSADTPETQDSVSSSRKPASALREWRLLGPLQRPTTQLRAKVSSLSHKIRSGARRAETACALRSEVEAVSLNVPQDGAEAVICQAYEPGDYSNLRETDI
UniProt P43140: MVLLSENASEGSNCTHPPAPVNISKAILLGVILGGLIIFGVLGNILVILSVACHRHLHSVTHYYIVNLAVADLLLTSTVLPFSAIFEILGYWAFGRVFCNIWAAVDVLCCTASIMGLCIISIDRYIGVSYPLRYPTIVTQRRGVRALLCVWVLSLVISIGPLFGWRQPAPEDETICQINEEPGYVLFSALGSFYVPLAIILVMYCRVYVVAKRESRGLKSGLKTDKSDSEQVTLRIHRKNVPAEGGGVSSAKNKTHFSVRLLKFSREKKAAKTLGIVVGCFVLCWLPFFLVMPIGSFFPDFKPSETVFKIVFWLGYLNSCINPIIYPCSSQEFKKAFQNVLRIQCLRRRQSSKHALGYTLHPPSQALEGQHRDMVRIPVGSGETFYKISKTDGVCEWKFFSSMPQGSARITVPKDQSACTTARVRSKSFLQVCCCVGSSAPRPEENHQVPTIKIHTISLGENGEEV
UniProt P25100, whole entry: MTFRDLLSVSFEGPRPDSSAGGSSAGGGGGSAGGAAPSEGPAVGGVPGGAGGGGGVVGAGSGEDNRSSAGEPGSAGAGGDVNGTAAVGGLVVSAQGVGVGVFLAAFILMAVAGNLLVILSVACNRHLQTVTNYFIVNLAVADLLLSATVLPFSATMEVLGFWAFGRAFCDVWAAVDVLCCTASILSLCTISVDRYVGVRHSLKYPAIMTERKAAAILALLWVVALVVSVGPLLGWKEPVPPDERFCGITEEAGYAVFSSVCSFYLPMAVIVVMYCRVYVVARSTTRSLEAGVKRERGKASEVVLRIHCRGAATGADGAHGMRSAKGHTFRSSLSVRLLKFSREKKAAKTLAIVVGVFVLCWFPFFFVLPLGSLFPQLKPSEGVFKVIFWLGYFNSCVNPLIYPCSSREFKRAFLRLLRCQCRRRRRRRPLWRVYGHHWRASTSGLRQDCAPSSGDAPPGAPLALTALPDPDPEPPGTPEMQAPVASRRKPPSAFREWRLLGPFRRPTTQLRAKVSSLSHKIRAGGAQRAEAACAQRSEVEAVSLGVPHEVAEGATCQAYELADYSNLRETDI
UniProt P35368, whole entry: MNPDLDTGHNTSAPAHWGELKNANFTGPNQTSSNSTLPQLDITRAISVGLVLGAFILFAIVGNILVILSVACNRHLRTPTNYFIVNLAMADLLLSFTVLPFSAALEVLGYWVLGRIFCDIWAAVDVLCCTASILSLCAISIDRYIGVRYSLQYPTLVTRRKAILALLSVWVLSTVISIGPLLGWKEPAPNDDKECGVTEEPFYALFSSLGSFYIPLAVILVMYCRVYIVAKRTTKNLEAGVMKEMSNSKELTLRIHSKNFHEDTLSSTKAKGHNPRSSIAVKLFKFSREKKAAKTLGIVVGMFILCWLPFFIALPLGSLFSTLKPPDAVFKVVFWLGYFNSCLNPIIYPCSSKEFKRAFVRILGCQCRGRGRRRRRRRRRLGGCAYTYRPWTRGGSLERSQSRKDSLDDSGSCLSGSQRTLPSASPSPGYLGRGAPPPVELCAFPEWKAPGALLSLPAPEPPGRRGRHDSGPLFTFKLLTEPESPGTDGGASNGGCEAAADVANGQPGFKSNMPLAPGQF

According to ChEMBL document CHEMBL1132476, “Design and synthesis of novel alpha(1)(a) adrenoceptor-selective antagonists. 1. Structure-activity relationship in dihydropyrimidinones” (J Med Chem, 1999):

Key:
[1] = target: Adrenergic receptor alpha-1 (Rattus norvegicus) (UniProt P15823+P23944+P43140); test: Antagonistic activity against Alpha-1 adrenergic receptor in rat prostate tissue using A61603 as agonist; assay type: functional, tissue-based; conditions: Prostate gland
[2] = target: T1, Alpha-1A adrenergic receptor (Homo sapiens, UniProt P35348); test: In vitro binding affinity against Alpha-1A adrenergic receptor in isolated prostate tissue of human; assay type: tissue-based, Prostate gland
T1 sequence (P35348 whole entry): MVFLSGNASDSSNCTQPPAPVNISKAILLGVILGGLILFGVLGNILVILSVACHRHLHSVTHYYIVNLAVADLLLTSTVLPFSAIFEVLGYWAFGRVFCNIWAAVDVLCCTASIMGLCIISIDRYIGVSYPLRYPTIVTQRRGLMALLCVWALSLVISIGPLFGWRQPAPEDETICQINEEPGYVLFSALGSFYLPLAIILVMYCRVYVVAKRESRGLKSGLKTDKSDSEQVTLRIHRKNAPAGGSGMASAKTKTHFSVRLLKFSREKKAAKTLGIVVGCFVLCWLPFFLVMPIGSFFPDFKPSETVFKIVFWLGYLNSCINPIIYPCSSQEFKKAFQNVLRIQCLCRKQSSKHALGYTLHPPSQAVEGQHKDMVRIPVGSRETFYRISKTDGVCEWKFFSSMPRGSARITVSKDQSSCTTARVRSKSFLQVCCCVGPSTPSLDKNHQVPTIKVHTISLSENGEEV

[3] = target: Alpha-1D adrenergic receptor (Homo sapiens, UniProt P25100); test: In vitro binding affinity against Alpha-1D adrenergic receptor of cloned human receptor.
[4] = target: Alpha-1B adrenergic receptor (Homo sapiens, UniProt P35368); test: In vitro binding affinity against Alpha-1B adrenergic receptor of cloned human receptor.
[5] = target: T1, Alpha-1A adrenergic receptor; test: In vitro binding affinity against Alpha-1A adrenergic receptor of cloned human receptor.

Row | Structure (SMILES) | Kb [1] | Ki [2] | Ki [3] | Ki [4] | Ki [5]
1 | COc1cc2nc(N3CCN(C(=O)C4CCCO4)CC3)nc(N)c2cc1OC (stereo not given) [TERAZOSIN] | 25 nM | – | – | – | –
2 | CCC1=C(C(N)=O)C(c2ccc([N+](=O)[O-])cc2)N(C(=O)NCCCN2CCC(C(=O)OC)(c3ccccc3)CC2)C(=O)N1 (stereo not given) | – | 0.19 nM | 740 nM and 420 nM and 290 nM | 360 nM and 130 nM and 160 nM | 0.2 nM and 1.9 nM and 0.5 nM

Several values for one entry are separate records, joined by “and”; a condition that tells them apart may be missing. Equal values may be shown once.
